Earlier results in patent US20210220295A1, “TREATMENT OF CANCER BY GUANIDINIUM DERIVATIVES” (priority 2018, published 2021).

System: brain cortical neurons or cardiomyocytes
Settings: cited from earlier work

Substance: N-(6-oxo-5,6-dihydro-phenanthridin-2-yl)-N,N-dimethylacetamide, HC1 [PJ-34]
- survival of non-dividing cells: not affected
